Laboratory results as given in patent publication US11299518B2, “Fusion respiratory syncytial virus inhibitors and use thereof” (priority 2016, dated 2022).

Assays:
RSV-mCherry = assay type: cell-based, HRSV; settings: HEp-2 cells, 0.2 MOI RSV-mCherry, 48 h
Procedure: The inhibitory activity of the peptides of the invention was assessed in HEp-2 cells as described below:
A mCherry-expressing virus recently developed (Rameix-Welti et al., 2014, Nat. Commun., 5:5104) was used to avoid the cumbersome manipulations required with the GFP-expressing virus. Under these assay conditions peptides of the invention 4a, 4ca, 4bb and 4bb′ show clear higher activities as compared to comparative peptides T118, 4ef, 4bf (Table 5).
HEp-2 cells were seeded at 5×10^4 cells per well in 96 wells plate the day before the infection. Peptides were 2-fold serially diluted in DMSO (11 dilutions), then further diluted in MEM medium and pre-incubated for 15-20 minutes with 0.2 MOI of RSV-mCherry (Rameix-Welti et al., 2014, supra). Following the washing of Hep-2 cells with MEM without phenol red medium, the cells were incubated with the virus/peptide mixtures for a period of 1 h30-2 h. The cells were washed and further incubated in MEM media containing fetal bovine serum and the same concentration of peptide that was used during the infection step. Plates were incubated 48 h at 37° C. and the mCherry fluorescence was measured using a spectrofluorometer (Tecan infinite M200PRO) with excitation and emission wavelengths of 580 and 620 nm, respectively (expressed in relative fluorescence units RFU). Non-infected HEp-2 cells were used as standards for fluorescence background levels. Each experiment was performed in duplicate and repeated at least twice.

[1] = system: recombinant green fluorescent protein (GFP)-expressing RSV virus (strain A2); assay type: cell-based; settings: A549 cells, FACS, read-out: EC50, block of viral infection of cells
Procedure: The inhibitory activity of the peptides of the invention was assessed in a cellular viral fusion assay as compared to comparative peptides as follows. A549 cells were infected with a recombinant green fluorescent protein (GFP)-expressing RSV virus (strain A2) obtained as described below and in Hallak et al., 2000, Virology, 271:264-275, and the inhibitory activity of the peptides was quantified by flow cytometry.
Following rapid thawing of the frozen eGFP encoding RSV virus at […], the virus was vortexed for 2 min, and pipetted up and down to break aggregates. Serial 4-fold dilutions of inhibitors were prepared in glass tubes and mixed with a volume of virus required to achieve approximately 50% of infection in 200 μl of media containing 2% of FCS. The resulting mixture was added to 24-well plates containing A549 cells. Cells were incubated for 2 hours at 37° C., the media was replaced, and cells were incubated for an additional 24 hours. Cells were treated with 300 μl of trypsin for 10 min at 37° C., and the detached cells were diluted in 1 ml of culture medium. Following centrifugation at 1′700 rpm, the pellet was resuspended in 300 μl of PBS+1% SBF (V/V) and GFP positive cells were counted by FACS analysis.

| Compound | EC50 (RSV-mCherry) | EC50 [1] |
| --- | --- | --- |
| CC[C@H](C)[C@H](NC(=O)[C@H](CCCCN)NC(=O)[C@H](CCC(=O)O)NC(C)=O)C(=O)N[C@H]1CCCC=CCCC[C@@H](C(=O)N[C@@H](Cc2ccccc2)C(=O)N[C@H](C(=O)N[C@H]2CCCC=CCCC[C@@H](C(=O)N[C@@H](CC(C)C)C(=O)N[C@@H](CC(C)C)C(=O)N[C@@H](Cc3c[nH]cn3)C(=O)N[C@@H](CC(N)=O)C(=O)N[C@H](C(N)=O)C(C)C)NC(=O)[C@H](CC(=O)O)NC(=O)[C@H](CO)NC(=O)[C@H](CCCCN)NC2=O)[C@@H](C)CC)NC(=O)[C@H](CC(C)C)NC(=O)[C@H](CO)NC(=O)[C@H](CCC(N)=O)NC1=O [4bb′] | 0.99 µM | – |
| CC[C@H](C)[C@H](NC(=O)[C@H](CCCCN)NC(=O)[C@H](CCC(=O)O)NC(C)=O)C(=O)N[C@@H](CC(N)=O)C(=O)N[C@@H](CCC(N)=O)C(=O)N[C@@H](CO)C(=O)N[C@@H](CC(C)C)C(=O)N[C@@]1(C)CCCC=CCCC[C@@](C)(C(=O)N[C@@H](CO)C(=O)N[C@@H](CC(=O)O)C(=O)N[C@@]2(C)CCCC=CCCC[C@@](C)(C(=O)N[C@H](C(N)=O)C(C)C)NC(=O)[C@H](Cc3c[nH]cn3)NC(=O)[C@H](CC(C)C)NC(=O)[C@H](CC(C)C)NC2=O)NC(=O)[C@H](CCCNC(=N)N)NC(=O)[C@H]([C@@H](C)CC)NC(=O)[C@H](Cc2ccccc2)NC1=O [Peptide 4a, EKINQSL Xaa8 FIR Xaa12 SD Xaa15 LLH Xaa19 V] | – | 10600 nM |
| CC[C@H](C)[C@H](NC(=O)[C@H](CCCCN)NC(=O)[C@H](CCC(=O)O)NC(C)=O)C(=O)N[C@@]1(C)CCCC=CCCC[C@@](C)(C(=O)N[C@@H](Cc2ccccc2)C(=O)N[C@H](C(=O)N[C@@]2(C)CCCC=CCCC[C@@](C)(C(=O)N[C@@H](CC(C)C)C(=O)N[C@@H](CC(C)C)C(=O)N[C@@H](Cc3c[nH]cn3)C(=O)N[C@@H](CC(N)=O)C(=O)N[C@H](C(N)=O)C(C)C)NC(=O)[C@H](CC(=O)O)NC(=O)[C@H](CO)NC(=O)[C@H](CCCCN)NC2=O)[C@@H](C)CC)NC(=O)[C@H](CC(C)C)NC(=O)[C@H](CO)NC(=O)[C@H](CCC(N)=O)NC1=O [Peptide 4bb, EKI Xaa4 QSL Xaa8 FI Xaa11 KSD Xaa15 LLHNV] | 0.74 ± 0.27 µM | 2270 nM |
| CC[C@H](C)[C@@H]1NC(=O)[C@H](Cc2ccccc2)NC(=O)[C@@H](NC(=O)[C@H](CC(C)C)NC(=O)[C@H](CO)NC(=O)[C@@H]2CCCC=CCCC[C@@](C)(NC(=O)[C@H](CCC(=O)O)NC(C)=O)C(=O)N[C@@H]([C@@H](C)CC)C(=O)N[C@@H](CC(N)=O)C(=O)N2)CCCC=CCCC[C@@H](C(=O)N[C@@H](CO)C(=O)N[C@@H](CC(=O)O)C(=O)N[C@@H](CCC(=O)O)C(=O)N[C@@H](CC(C)C)C(=O)N[C@@H](CC(C)C)C(=O)N[C@@H](Cc2c[nH]cn2)C(=O)N[C@@H](CC(N)=O)C(=O)N[C@H](C(N)=O)C(C)C)NC(=O)[C@H](CCCNC(=N)N)NC1=O [Peptide 4ca2] | 0.33 ± 0.05 µM | – |
| CC[C@H](C)[C@@H]1NC(=O)[C@H](Cc2ccccc2)NC(=O)[C@@](C)(NC(=O)[C@H](CC(C)(C)C)NC(=O)[C@H](CO)NC(=O)[C@]2(C)CCCC=CCCC[C@@](C)(NC(=O)[C@H](CCC(=O)O)NC(C)=O)C(=O)N[C@@H]([C@@H](C)CC)C(=O)N[C@@H](CC(N)=O)C(=O)N2)CCCC=CCCC[C@@](C)(C(=O)N[C@@H](CO)C(=O)N[C@@H](CC(=O)O)C(=O)N[C@@H](CCC(=O)O)C(=O)N[C@@H](CC(C)C)C(=O)N[C@@H](CC(C)C)C(=O)N[C@@H](Cc2c[nH]cn2)C(=O)N[C@@H](CC(N)=O)C(=O)N[C@H](C(N)=O)C(C)C)NC(=O)[C@H](CCCNC(=N)N)NC1=O [Peptide 4ca-var1] | 1.36 ± 0.19 µM | – |
| CC[C@H](C)[C@@H]1NC(=O)[C@H](Cc2ccccc2)NC(=O)[C@@](C)(NC(=O)[C@@H](NC(=O)[C@H](CO)NC(=O)[C@]2(C)CCCC=CCCC[C@@](C)(NC(=O)[C@H](CCC(=O)O)NC(C)=O)C(=O)N[C@@H]([C@@H](C)CC)C(=O)N[C@@H](CC(N)=O)C(=O)N2)C2CCCC2)CCCC=CCCC[C@@](C)(C(=O)N[C@@H](CO)C(=O)N[C@@H](CC(=O)O)C(=O)N[C@@H](CCC(=O)O)C(=O)N[C@@H](CC(C)C)C(=O)N[C@@H](CC(C)C)C(=O)N[C@@H](Cc2c[nH]cn2)C(=O)N[C@@H](CC(N)=O)C(=O)N[C@H](C(N)=O)C(C)C)NC(=O)[C@H](CCCNC(=N)N)NC1=O [Peptide 4ca-var2] | 1.49 ± 0.14 µM | – |
| CC[C@H](C)[C@@H]1NC(=O)[C@H](Cc2ccccc2)NC(=O)[C@@](C)(NC(=O)[C@@H](NC(=O)[C@H](CO)NC(=O)[C@]2(C)CCCC=CCCC[C@@](C)(NC(=O)[C@H](CCC(=O)O)NC(C)=O)C(=O)N[C@@H]([C@@H](C)CC)C(=O)N[C@@H](CC(N)=O)C(=O)N2)C2CCCCC2)CCCC=CCCC[C@@](C)(C(=O)N[C@@H](CO)C(=O)N[C@@H](CC(=O)O)C(=O)N[C@@H](CCC(=O)O)C(=O)N[C@@H](CC(C)C)C(=O)N[C@@H](CC(C)C)C(=O)N[C@@H](Cc2c[nH]cn2)C(=O)N[C@@H](CC(N)=O)C(=O)N[C@H](C(N)=O)C(C)C)NC(=O)[C@H](CCCNC(=N)N)NC1=O [Peptide 4ca-var3] | 0.77 ± 0.08 µM | – |
| CC[C@H](C)[C@@H]1NC(=O)[C@H](Cc2ccccc2)NC(=O)[C@@](C)(NC(=O)[C@H](CC(C)C)NC(=O)[C@H](CO)NC(=O)[C@]2(C)CCCC=CCCC[C@@](C)(NC(=O)[C@H](CCC(=O)O)NC(C)=O)C(=O)N[C@@H]([C@@H](C)CC)C(=O)N[C@@H](CC(N)=O)C(=O)N2)CCCC=CCCC[C@@](C)(C(=O)N[C@@H](CO)C(=O)N[C@@H](CC(=O)O)C(=O)N[C@@H](CCC(=O)O)C(=O)N[C@@H](CC2CCCCC2)C(=O)N[C@@H](CC(C)C)C(=O)N[C@@H](Cc2c[nH]cn2)C(=O)N[C@@H](CC(N)=O)C(=O)N[C@H](C(N)=O)C(C)C)NC(=O)[C@H](CCCNC(=N)N)NC1=O [Peptide 4ca-var7, E Xaa2 IN Xaa5 SL Xaa8 FIR Xaa12 SDE Xaa16LHNV] | 0.231 ± 0.03 µM | – |
| CC[C@H](C)[C@@H]1NC(=O)[C@H](Cc2ccccc2)NC(=O)[C@@](C)(NC(=O)[C@H](CC(C)C)NC(=O)[C@H](CO)NC(=O)[C@]2(C)CCCC=CCCC[C@@](C)(NC(=O)[C@H](CCC(=O)O)NC(C)=O)C(=O)N[C@@H]([C@@H](C)CC)C(=O)N[C@@H](CC(N)=O)C(=O)N2)CCCC=CCCC[C@@](C)(C(=O)N[C@@H](CO)C(=O)N[C@@H](CC(=O)O)C(=O)N[C@@H](CCC(=O)O)C(=O)N[C@@H](CC(C)C)C(=O)N[C@@H](CC(C)C)C(=O)N[C@@H](Cc2c[nH]cn2)C(=O)N[C@@H](CC(N)=O)C(=O)N[C@H](C(N)=O)C(C)C)NC(=O)[C@H](CCCNC(=N)N)NC1=O [Peptide 4ca] | 0.59 ± 0.13 µM | 4080 nM |
